Assay results reported in BigSolDB 2.1.

Conditions: in water, 298 K

- solubility (mole fraction): 3.12e-06
Compound: O=S(=O)(Nc1cccnc1Cl)c1ccccc1
